ChEMBL document CHEMBL4138119, “Anti-diabetic activity of fused PPARγ-SIRT1 ligands with limited body-weight gain by mimicking calorie restriction and decreasing SGK1 expression” (Eur J Med Chem, 2017)

Target: T1, Peroxisome proliferator-activated receptor alpha (Homo sapiens, UniProt Q07869)
T1 sequence (Q07869 whole entry): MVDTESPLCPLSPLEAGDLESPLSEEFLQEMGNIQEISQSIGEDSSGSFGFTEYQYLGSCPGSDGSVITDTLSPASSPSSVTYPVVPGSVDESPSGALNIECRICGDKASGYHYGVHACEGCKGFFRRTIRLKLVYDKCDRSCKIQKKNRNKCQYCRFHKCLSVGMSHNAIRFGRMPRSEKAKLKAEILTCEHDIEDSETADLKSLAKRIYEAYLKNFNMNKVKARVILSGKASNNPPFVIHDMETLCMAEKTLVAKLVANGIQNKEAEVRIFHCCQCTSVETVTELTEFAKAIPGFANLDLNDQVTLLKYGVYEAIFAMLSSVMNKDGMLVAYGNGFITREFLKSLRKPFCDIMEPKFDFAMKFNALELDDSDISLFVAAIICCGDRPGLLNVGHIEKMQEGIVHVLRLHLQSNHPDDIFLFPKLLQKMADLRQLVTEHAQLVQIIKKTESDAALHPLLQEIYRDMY
Assay: Transactivation of human Gal4-fused PPARalpha LBD expressed in African green monkey COS7 cells after 24 hrs by luciferase reporter gene assay
Assay type: cell-based

Cc1oc(-c2ccccc2)nc1CCOc1ccc(C[C@H](Nc2ccccc2C(=O)c2ccccc2)C(=O)O)cc1 [FARGLITAZAR]
EC50: 122 nM
